System: isolated rat bladder
Settings: isolated rat bladder strips, carbachol concentration response curve

O=C(OCC12CC1CN(Cc1ccccc1)C2)C(O)(c1ccccc1)C1CCCC1 (centres unmarked)
Functional Assay pKB: 7.51 ± 0.33

O=C(OCC12CC1CN(Cc1ccccc1)C2)C(O)(c1ccccc1)C1CCCCC1 (centres unmarked)
Functional Assay pKB: 7.74 ± 0.001

From patent US7592359B2, “Substituted azabicyclo hexane derivatives as muscarinic receptor antagonists” (Ranbaxy Laboratories Limited, priority 2003, dated 2009)
